From PubChem BioAssay AID740 (SRMLSC, 2007) come the findings set out here.

SMILES strings stand for the structures. Only a part is listed here, and it is no random draw. Some results for these compounds are left out of this collection, so the calls shown say nothing about other tests. The source made the active and inactive calls. No stated cut-off is given here; in the data, active means inhibition above about 25%; inactive means the rest.

This assay can be described thus: unspecified inhibition readout at 50 µM (AID 740). As to conditions: unspecified screen; stronger effect = higher value.
One may read the inhibition as the percentage by which the read-out fell short of the control. Regarding `CC(C)N1C(=O)CC2(CCN(CCOC(=O)C(O)(c3ccccc3)c3ccccc3)CC2)C1=O`, the inhibition result is “inactive”.
Consider `CN(C)c1cccc(C(=O)NCC2(N(C)C)CCCCC2)c1`, for which the inhibition is inactive: 1.93%.
Turning to `O=C(OC1CN2CCC1CC2)C(CO)(c1ccccc1)c1ccccc1` (stereo not drawn), the inhibition result is “inactive”.
